These results are taken from EP4703362A1 (Chengdu Sibeibo Pharmaceutical Technology Co., Ltd, priority 2023, dated 2024).

The target in one assay is T1, CGRP receptor complex (Homo sapiens, UniProt O60894+Q16602).
T1 construct: host or cells: SK-N-MC
As to the kind of experiment: determination of cell functional antagonism - cAMP determination. It is filed as cell-based. The conditions noted are these: for IC50 values / inhibitory activities (in words): inhibition of CGRP-stimulated cAMP formation, statement of the conclusion. How it is done:
1.Experimental principle A CGRP receptor complex was coupled with Gs in G protein, the combination of CGRP and CGRP receptor complex led to Gs activation, and cAMP (3',5'-cyclic adenosine monophosphate) was produced. 2.Experimental purpose The ability of the compound of the present invention to inhibit CGRP-stimulated cAMP formation in SK-N-MC cells was determined. 3.Experimental materials 3.1Experimental cell line: SK-N-MC (neuroepithelioma cells) from National Science and Technology Infrastructure - Biomedical Materials and Cell Resources. 3.2Reagents and consumables
4.Experimental steps • 4.1Cell preparation: The SK-N-MC cells were resuscitated and cultured in advance, and a cell confluence degree should be 70%-80% before use. • 4.2A sample dilution, a tested compound and α-CGRP (human) were prepared. • 4.3Cell seeding and drug effect: The SK-N-MC cells were digested, centrifuged, then resuspended with the sample dilution, and inoculated into a 384-well plate. Each well was added with the α-CGRP (human) and the tested compound respectively, and blown and mixed evenly. The well plate was adhered with a sealing film, and placed on an enzyme-labeled incubator to incubate at 25°C. • 4.4cAMP determination: carried out according to LANCE Ultra cAMP Kit specification Eu-cAMP tracer and ULight-anti-cAMP working solutions were prepared in the dark, respectively added into the well plate, and blown and mixed evenly.

In another assay the target is T2, CGRP receptor (Homo sapiens, UniProt O60894+Q16602).
T2 construct: A tissue homogenate of SK-N-MC cell membrane was used as a receptor source; host or cells: SK-N-MC (membrane preparation)
As to the kind of experiment: Competitive binding determination of in-vitro [125I] CGRP. The conditions noted are these: competition with 125I-CGRP (Human) 200 pM, SK-N-MC cell membrane. How it is done: The ability of the compound to compete for a radiolabelled endogenous peptide human αCGRP ([^125I] CGRP) was determined.
The SK-N-MC cells endogenously expressed a CGRP receptor with the same sequence as the human CGRP receptor. A tissue homogenate of SK-N-MC cell membrane was used as a receptor source, and the radiolabelled endogenous peptide human αCGRP ([^125I] CGRP) and the compound competitively bound with the receptor source. After washing the unbound part of [^125I] CGRP, the binding of the reaction compound on the receptor could be detected by a radioactive signal.
3.1 Experimental cell line: SK-N-MC (human neuroepithelioma cells) from Cell Resource Center, Peking Union Medical College 3.2 Detection equipment: MicroBeta2 (PerkinElmer), and […]-96 well cell collector (PerkinElmer, C961961) 3.3 Experimental reagents and consumables
3.4 Experimental steps • 3.4.1 Extraction and quantification of membrane protein: fresh SK-N-MC cells were collected. The cell pellet was resuspended with an experimental buffer (Tris-HCl 50 mM, pH 7.4). The cells were homogenized 10 times by a homogenizer, and centrifuged at 1000 g and 4°C for 10 minutes, then nuclear/mitochondrial fragments were removed, and a supernatant tissue homogenate was collected. The supernatant was centrifuged at 50000 g and 4°C for 1 hour, and then a supernatant was removed. Particles were suspended with an appropriate buffer, and after determing the protein concentration, the suspension was packaged and then stored at -80°C. • 3.4.2 Determination of binding Ki (inhibition constant) of compound: 1 µL of continuously diluted tested compound was transferred to an assay plate. […] Each well was added with 50 µL of 0.3% PEI to soak the mixture for 1 hour. The reaction mixture was filtered by a […]-96 well cell collector, and the plate was washed with a pre-cooled buffer. […] A ^3H signal was captured by a MicroBeta2 Reader counting filter. • 3.4.3 Data analysis
Data were analyzed by Prism 5.

The mark [1] stands for this setting: inhibition of CGRP-stimulated cAMP formation in SK-N-MC cells, read-out: IC50.
The mark [2] stands for this setting: inhibition of CGRP-stimulated cAMP formation in SK-N-MC cells.

Read-outs that look alike come from different tables or passages of the source.

As a reminder, the IC50 is the concentration needed to halve the response being measured. Broadly, the Ki is the dissociation constant of the complex between target and ligand, obtained from inhibition or displacement. A higher Ki goes with weaker binding. As to `[2H]C([2H])([2H])N1CCC(N2CCN(C(=O)[C@@H](Cc3cc(C)c4[nH]ncc4c3)NC(=O)N3CCC(c4cc5c([nH]c4=O)SCCC5)CC3)CC2)CC1` [Example 30, (R)-N-(3-(7-methyl-1H-indazole-5-yl)-1-(4-(1-(methyl-d3)piperidine-4-yl)piperazine-1-yl)-1-oxopropan-2-yl)-4-(7-oxo-3,4,7,8-tetrahydro-2H-thiopyrano[2,3-b]pyridine-6-yl)piperidine-1-formamide], the IC50 at CGRP receptor complex (setting [1]) stood at 0.19 nM. The compound further registered a Ki on CGRP receptor of 0.0166 nM. On to `[2H]c1n[nH]c2c(C)cc(C[C@@H](NC(=O)N3CCC(c4cc5c([nH]c4=O)SCCC5)CC3)C(=O)N3CCN(C4CCN(C)CC4)CC3)cc12` [Example 37, (R)-N-(3-(7-methyl-1H-indazole-5-yl-3-d)-1-(4-(1-methylpiperidine-4-yl)piperazine-1-yl)-1-oxopropan-2-yl)-4-(7-oxo-3,4,7,8-tetrahydro-2H-thiopyrano[2,3-b]pyridine-6-yl)piperidine-1-formamide], for which the IC50 on CGRP receptor complex (setting [2]) amounted to 0.15 nM. In the case of `Cc1cc(C[C@@H](NC(=O)N2CCC(c3cc4c([nH]c3=O)[S+]([O-])CC4(C)C)CC2)C(=O)N2CCN(C3CCN(C)CC3)CC2)cc2cn[nH]c12` (stereo partly drawn) [Example 9, 4-(3,3-dimethyl-1-oxidation-6-oxo-2,3,6,7-tetrahydrothieno[2,3-b]pyridine-5-yl)-N-((R)-3-(7-methyl-1H-indazole-5-yl)-1-(4-(1-methylpiperidine-4-yl)piperazine-1-yl)-1-oxopropan-2-yl)piperidine-1-formamide], on CGRP receptor complex, the IC50 came to 0.86 nM and the “IC50 values / inhibitory activities (in words)” value is listed as “pM level”. Turning to `[2H]c1n[nH]c2c(C)cc(C[C@@H](NC(=O)N3CCC(c4cc5c([nH]c4=O)SCCC5)CC3)C(=O)N3CCN(C4CCN(C([2H])([2H])[2H])CC4)CC3)cc12` [Example 38, (R)-N-(3-(7-methyl-1H-indazole-5-yl-3-d)-1-(4-(1-(methyl-d3)piperidine-4-yl)piperazine-1-yl)-1-oxopropan-2-yl)-4-(7-oxo-3,4,7,8-tetrahydro-2H-thiopyrano[2,3-b]pyridine-6-yl)piperidine-1-formamide], the IC50 at CGRP receptor complex (setting [1]) amounted to 0.07 nM. Turning to `[2H]c1n[nH]c2c(C)cc(C[C@@H](NC(=O)N3CCC(c4cc5c([nH]c4=O)SCC5)CC3)C(=O)N3CCN(C4CCN(C)CC4)CC3)cc12` [Example 44, (R)-N-(3-(7-methyl-1H-indazole-5-yl-3-d)-1-(4-(1-methylpiperidine-4-yl)piperazine-1-yl)-1-oxopropan-2-yl)-4-(6-oxo-2,3,6,7-tetrahydrothieno[2,3-b]pyridine-5-yl)piperidine-1-formamide], the IC50 at CGRP receptor complex (setting [2]) came out at 0.06 nM. Take `[2H]c1n[nH]c2c(C)cc(C[C@@H](NC(=O)N3CCC(c4cc5c([nH]c4=O)SCC5)CC3)C(=O)N3CCN(C4CCN(C([2H])([2H])[2H])CC4)CC3)cc12` [Example 43, (R)-N-(3-(7-methyl-1H-indazole-5-yl-3-d)-1-(4-(1-(methyl-d3)piperidine-4-yl)piperazine-1-yl)-1-oxopropan-2-yl)-4-(6-oxo-2,3,6,7-tetrahydrothieno[2,3-b]pyridine-5-yl)piperidine-1-for mamide]: the IC50 at CGRP receptor complex (setting [2]) was 0.1 nM. For `Cc1cc(C[C@@H](NC(=O)N2CCC(c3cc4c([nH]c3=O)SCC4)CC2)C(=O)N2CCN(C3CCN(C)CC3)CC2)cc2cn[nH]c12` [Example 8, (R)-N-(3-(7-methyl-1H-indazole-5-yl)-1-(4-(1-methylpiperidine-4-yl)piperazine-1-yl)-1-oxopropan-2-yl)-4-(6-oxo-2,3,6,7-tetrahydrothieno[2,3-b]pyridine-5-yl)piperidine-1-formamide], on CGRP receptor complex (setting [1]), the IC50 turned out to be 0.41 nM. Moreover, the “IC50 values / inhibitory activities (in words)” value on CGRP receptor complex is “pM level”. This compound also displayed a Ki at CGRP receptor of 0.0116 nM. Consider `Cc1cc(C[C@@H](NC(=O)N2CCC(c3cc4c([nH]c3=O)SCCC4)CC2)C(=O)N2CCN(C3CCN(C)CC3)CC2)cc2cn[nH]c12` [Example 6, (R)-N-(3-(7-methyl-1H-indazole-5-yl)-1-(4-(1-methylpiperidine-4-yl)piperazine-1-yl)-1-oxopropan-2-yl)-4-(7-oxo-3,4,7,8-tetrahydro-2H-thiopyrano[2,3-b]pyridine-6-yl)piperidine-1-for mamide], for which, at CGRP receptor complex (setting [2]), the IC50 was 0.21 nM. This compound also returned a Ki on CGRP receptor of 0.0195 nM.
